Results taken from ChEMBL document CHEMBL1681744, “1-((3S,4S)-4-amino-1-(4-substituted-1,3,5-triazin-2-yl) pyrrolidin-3-yl)-5,5-difluoropiperidin-2-one inhibitors of DPP-4 for the treatment of type 2 diabetes” (Bioorg Med Chem Lett, 2011).

Assays:
Prolyl endopeptidase FAP = biological target: T1, Prolyl endopeptidase FAP (Homo sapiens, UniProt Q12884); assay: Inhibition of FAP
T1 sequence (Q12884 whole entry): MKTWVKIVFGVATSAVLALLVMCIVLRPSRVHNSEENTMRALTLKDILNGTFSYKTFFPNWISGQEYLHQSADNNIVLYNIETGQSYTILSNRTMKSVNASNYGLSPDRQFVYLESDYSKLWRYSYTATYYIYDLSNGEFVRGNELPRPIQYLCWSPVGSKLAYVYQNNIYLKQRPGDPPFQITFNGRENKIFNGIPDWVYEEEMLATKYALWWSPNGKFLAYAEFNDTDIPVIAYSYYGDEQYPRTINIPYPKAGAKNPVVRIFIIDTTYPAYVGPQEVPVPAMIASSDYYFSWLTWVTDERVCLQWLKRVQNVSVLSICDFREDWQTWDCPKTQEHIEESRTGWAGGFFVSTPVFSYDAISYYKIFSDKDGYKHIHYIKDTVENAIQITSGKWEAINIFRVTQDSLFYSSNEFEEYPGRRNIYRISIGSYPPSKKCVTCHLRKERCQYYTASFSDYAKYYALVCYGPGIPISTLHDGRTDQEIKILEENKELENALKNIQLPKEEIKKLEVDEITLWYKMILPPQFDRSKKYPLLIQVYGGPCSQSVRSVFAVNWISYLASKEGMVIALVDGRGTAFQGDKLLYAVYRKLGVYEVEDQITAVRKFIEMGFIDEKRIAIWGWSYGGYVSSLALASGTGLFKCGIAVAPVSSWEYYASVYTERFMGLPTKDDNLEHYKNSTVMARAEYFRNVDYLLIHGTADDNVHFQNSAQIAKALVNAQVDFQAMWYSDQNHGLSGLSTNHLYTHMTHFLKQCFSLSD

Dipeptidyl peptidase 2 = Dipeptidyl peptidase 2 (Homo sapiens, UniProt Q9UHL4); assay: Inhibition of DPP2
Prolyl endopeptidase = biological target: T2, Prolyl endopeptidase (Homo sapiens, UniProt P48147); assay: Inhibition of POP
T2 sequence (P48147 whole entry): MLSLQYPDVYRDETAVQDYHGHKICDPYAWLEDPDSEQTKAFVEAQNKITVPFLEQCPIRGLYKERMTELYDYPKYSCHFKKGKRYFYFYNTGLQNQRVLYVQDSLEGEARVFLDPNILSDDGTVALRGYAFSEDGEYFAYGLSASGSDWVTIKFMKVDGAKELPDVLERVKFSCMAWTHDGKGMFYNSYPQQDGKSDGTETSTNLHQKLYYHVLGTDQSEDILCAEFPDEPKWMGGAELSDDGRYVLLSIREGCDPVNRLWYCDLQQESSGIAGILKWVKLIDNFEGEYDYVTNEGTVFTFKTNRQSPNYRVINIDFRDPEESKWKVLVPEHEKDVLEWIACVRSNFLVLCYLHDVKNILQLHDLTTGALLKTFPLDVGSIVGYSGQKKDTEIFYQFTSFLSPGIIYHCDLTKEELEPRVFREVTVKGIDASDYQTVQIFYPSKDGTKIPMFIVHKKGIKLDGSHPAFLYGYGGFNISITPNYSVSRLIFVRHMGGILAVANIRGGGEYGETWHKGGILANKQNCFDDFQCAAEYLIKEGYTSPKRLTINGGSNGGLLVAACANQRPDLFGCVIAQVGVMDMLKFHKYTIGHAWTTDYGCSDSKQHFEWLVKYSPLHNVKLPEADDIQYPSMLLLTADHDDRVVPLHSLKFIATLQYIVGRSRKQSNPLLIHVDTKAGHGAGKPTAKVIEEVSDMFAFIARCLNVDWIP

Measured: Ki

N[C@H]1CN(c2ncnc(N3CCC(F)(F)C3)n2)C[C@@H]1N1CC(F)(F)CCC1=O
> 30 µM: all assays above
